Laboratory results: ChEMBL document CHEMBL4627400, “Discovery of Dihydropyrrolo[1,2-a]pyrazin-3(4H)-one-Based Second-Generation GluN2C- and GluN2D-Selective Positive Allosteric Modulators (PAMs) of the N-Methyl-d-Aspartate (NMDA) Receptor” (J Med Chem, 2020)

Chains of the proteins cited; added tags and fusions are not shown. Lines headed by an entry give the natural chain unless they say otherwise; changes in a name come on top.
UniProt Q62645, whole entry, looked up: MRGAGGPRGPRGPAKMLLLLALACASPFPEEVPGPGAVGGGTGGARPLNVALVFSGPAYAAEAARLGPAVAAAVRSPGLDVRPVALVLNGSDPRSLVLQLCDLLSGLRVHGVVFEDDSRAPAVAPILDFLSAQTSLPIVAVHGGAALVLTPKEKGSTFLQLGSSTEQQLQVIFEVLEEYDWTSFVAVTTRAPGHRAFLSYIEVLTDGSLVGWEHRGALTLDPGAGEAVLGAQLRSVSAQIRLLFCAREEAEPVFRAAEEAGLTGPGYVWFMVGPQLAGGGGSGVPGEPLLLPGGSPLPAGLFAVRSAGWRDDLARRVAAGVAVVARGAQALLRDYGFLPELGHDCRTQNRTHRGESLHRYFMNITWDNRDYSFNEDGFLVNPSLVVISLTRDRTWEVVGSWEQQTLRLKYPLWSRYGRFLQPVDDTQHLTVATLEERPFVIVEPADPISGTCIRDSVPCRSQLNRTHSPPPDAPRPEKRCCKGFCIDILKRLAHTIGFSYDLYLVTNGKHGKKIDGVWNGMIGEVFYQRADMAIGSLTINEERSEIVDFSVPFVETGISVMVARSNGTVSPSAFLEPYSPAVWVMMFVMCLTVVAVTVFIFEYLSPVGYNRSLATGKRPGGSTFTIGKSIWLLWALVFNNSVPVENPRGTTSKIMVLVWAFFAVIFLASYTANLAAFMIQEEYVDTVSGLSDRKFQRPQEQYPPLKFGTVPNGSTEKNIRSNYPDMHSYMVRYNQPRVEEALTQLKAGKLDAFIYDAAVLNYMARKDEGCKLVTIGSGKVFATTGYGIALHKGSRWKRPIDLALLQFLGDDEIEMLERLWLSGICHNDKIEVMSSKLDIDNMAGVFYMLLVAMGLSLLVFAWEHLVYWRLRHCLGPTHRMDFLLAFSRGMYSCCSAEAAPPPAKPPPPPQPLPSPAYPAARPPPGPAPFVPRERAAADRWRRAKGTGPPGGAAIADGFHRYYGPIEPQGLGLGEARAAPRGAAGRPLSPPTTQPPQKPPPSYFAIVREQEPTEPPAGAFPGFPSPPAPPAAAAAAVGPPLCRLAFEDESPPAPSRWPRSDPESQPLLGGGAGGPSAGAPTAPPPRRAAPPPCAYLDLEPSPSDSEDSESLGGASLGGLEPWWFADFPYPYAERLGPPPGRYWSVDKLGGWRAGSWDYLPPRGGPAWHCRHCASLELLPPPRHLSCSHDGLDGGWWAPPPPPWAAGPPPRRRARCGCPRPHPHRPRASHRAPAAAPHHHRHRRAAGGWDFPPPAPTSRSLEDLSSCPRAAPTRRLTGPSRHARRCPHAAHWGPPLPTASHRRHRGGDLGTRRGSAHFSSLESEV
UniProt Q00961: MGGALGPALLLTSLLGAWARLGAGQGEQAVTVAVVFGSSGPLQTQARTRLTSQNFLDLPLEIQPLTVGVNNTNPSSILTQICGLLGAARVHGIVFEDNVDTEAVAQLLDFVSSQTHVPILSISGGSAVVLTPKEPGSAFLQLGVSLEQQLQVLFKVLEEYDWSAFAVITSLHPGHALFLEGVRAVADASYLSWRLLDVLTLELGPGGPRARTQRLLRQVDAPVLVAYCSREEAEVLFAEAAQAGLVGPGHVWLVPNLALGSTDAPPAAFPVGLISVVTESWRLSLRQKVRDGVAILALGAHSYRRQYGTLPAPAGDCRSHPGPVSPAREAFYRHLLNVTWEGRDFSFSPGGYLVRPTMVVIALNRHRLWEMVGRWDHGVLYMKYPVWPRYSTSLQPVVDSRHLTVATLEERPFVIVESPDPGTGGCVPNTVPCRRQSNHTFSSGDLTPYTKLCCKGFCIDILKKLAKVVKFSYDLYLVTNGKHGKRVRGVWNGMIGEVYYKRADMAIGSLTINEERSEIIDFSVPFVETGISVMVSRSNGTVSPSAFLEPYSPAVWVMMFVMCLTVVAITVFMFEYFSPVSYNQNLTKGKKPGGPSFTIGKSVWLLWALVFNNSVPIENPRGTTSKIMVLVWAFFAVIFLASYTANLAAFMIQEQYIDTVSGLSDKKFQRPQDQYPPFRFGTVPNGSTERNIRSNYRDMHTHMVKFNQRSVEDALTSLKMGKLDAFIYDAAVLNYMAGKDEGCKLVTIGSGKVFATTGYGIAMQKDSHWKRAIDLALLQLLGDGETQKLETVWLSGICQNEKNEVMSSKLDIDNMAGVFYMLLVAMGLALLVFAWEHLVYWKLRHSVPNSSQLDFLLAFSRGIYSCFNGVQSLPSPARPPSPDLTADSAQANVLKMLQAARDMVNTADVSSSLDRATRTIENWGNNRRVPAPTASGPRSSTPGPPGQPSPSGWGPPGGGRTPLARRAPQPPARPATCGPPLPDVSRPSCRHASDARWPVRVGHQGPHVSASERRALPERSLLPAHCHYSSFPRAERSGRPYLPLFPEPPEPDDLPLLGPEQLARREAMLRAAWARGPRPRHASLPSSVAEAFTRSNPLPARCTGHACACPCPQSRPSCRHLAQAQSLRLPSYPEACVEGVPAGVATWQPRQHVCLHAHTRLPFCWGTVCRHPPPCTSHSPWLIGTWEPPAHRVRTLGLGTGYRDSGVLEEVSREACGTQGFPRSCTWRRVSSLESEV

Assays:
Type in all cases: cell-based
[1] = molecular target: Ionotropic glutamate receptor NMDA 1/2D (Rattus norvegicus) (UniProt P35439+Q62645); test: Positive allosteric modulation of recombinant rat GluN1a/GluN2D receptor expressed in Xenopus laevis oocytes assessed as increase in glycine/L-glutamate-induced channel current by measuring log of doubling concentration by two-electrode voltage clamp method
Outline: (§1)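 Oocytes expressing rat GluN1/GluN2C or GluN2D, held at −40 mV in HEPES-buffered Ba2+ solution, pH 7.4, 23 °C. Compound (DMSO stock 20 mM) co-applied with 100 μM glutamate and 30 μM glycine. Current given as percent of agonist-alone response. […] Doubling concentration is the concentration giving 2-fold response; reported as […] log. 6–19 oocytes from 2–3 frogs.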

[2] = molecular target: T1, Glutamate NMDA receptor; Grin1/Grin2c (Rattus norvegicus) (UniProt P35439+Q00961); test: Positive allosteric modulation of recombinant rat GluN1a/GluN2C receptor expressed in Xenopus laevis oocytes assessed as increase in glycine/L-glutamate-induced channel current by measuring log of doubling concentration by two-electrode voltage clamp method
[3] = molecular target: T1, Glutamate NMDA receptor; Grin1/Grin2c (Rattus norvegicus); test: Positive allosteric modulation of recombinant rat GluN1a/GluN2C receptor expressed in Xenopus laevis oocytes assessed as increase in glycine/L-glutamate-induced channel current at 30 uM by two-electrode voltage clamp method relative to control; outline: as §1

Structure (SMILES) | log(activity) [1] | log(activity) [2] | %max [3] [%]
COc1ccc(OCC2c3ccc(OC(C)C)cc3CC(=O)N2Cc2cccc(F)c2)cc1 (configuration not stated) | -5.8 | -6 | –
COc1ccc(OCC2c3ccc(OC)cc3CCN2C(=O)c2cccc(Cl)c2)cc1 (configuration not stated) | -5.3 | -5.5 | 240
COc1ccc(OCC2c3cccn3CCN2C(=O)c2cccc(Cl)c2)cc1 (configuration not stated) | -5.8 | -5.9 | –
COc1ccc(OCC2c3sccc3CCN2C(=O)c2ccc(Cl)s2)cc1 (configuration not stated) | -5.6 | -5.3 | –
COc1ccc(OC[C@H]2c3cccn3CCN2C(=O)c2cccc(C(F)(F)F)c2)cc1 | -6.4 | -6.3 | –
COc1ccc(OCC2c3sccc3CCN2C(=O)c2cccc(Cl)c2)cc1 (configuration not stated) | -5.6 | -5.3 | –
COc1ccc(OCC2c3sccc3CCN2C(=O)/C=C/C(F)(F)F)cc1 (configuration not stated) | -4.9 | -4.8 | –
COc1ccc(OCC2c3ccccc3CCN2C(=O)c2cccc(Cl)c2)cc1 (configuration not stated) | -5 | -5 | –
COc1ccc(OCC2c3ccc(OC(C)C)cc3CCN2C(=O)c2cccc(F)c2)cc1 (configuration not stated) | -5.5 | – | –
COc1ccc(OCC2c3ccc(OC(C)C)cc3CCN2C(=O)c2cccc(C(F)(F)F)c2)cc1 (configuration not stated) | -5.8 | -6 | –
COc1ccc(OC[C@H]2c3cccn3CC(=O)N2Cc2cccc(C(F)(F)F)c2)cc1 | -6.2 | -6 | –
COc1ccc(OCC2c3ccc(OCC(C)C)cc3CCN2C(=O)c2cccc(Cl)c2)cc1 (configuration not stated) | -6.3 | -6.4 | –
COc1ccc(OCC2c3cccn3CC(=O)N2Cc2cccc(C(F)(F)F)c2)cc1 (configuration not stated) | -6.1 | -5.9 | –
COc1ccc(OCC2c3ccc(OC)cc3CC(=O)N2CCCC(F)(F)F)cc1 (configuration not stated) | -5.1 | -5 | –
COc1ccc(OCC2c3cccn3CCN2C(=O)c2cccc(C(F)(F)F)c2)cc1 (configuration not stated) | -5.6 | -6.1 | –
COc1ccc(OCC2c3ccc(OC(C)C)cc3CC(=O)N2Cc2cccc(C(F)(F)F)c2)cc1 (configuration not stated) | -6.3 | -6.3 | –
COc1ccc(OCC2c3ccc(OC(C)C)cc3CC(=O)N2Cc2cccc(Cl)c2)cc1 (configuration not stated) | -6.6 | -6.6 | –
COc1ccc(OC[C@H]2c3cccn3CCN2C(=O)c2cccc(Cl)c2)cc1 | -6.2 | -6.1 | –
COc1ccc(OCC2c3cc(OC)c(OC)cc3CCN2C(=O)c2cccc(Cl)c2)cc1 (configuration not stated) | -4.5 | -4.9 | –
COc1ccc(OCC2c3ccsc3CCN2C(=O)c2cccc(Cl)c2)cc1 (configuration not stated) | -5.4 | -5.5 | –
COc1ccc(OCC2c3ccc(OCC(C)C)cc3CC(=O)N2Cc2cccc(Cl)c2)cc1 (configuration not stated) | -6.4 | -6.2 | –
COc1ccc(OCC2c3occc3CCN2C(=O)c2cccc(Cl)c2)cc1 (configuration not stated) | -5.5 | -5.4 | –
COc1ccc(OCC2c3ccc(OC(C)C)cc3CCN2C(=O)c2cccc(Cl)c2)cc1 (configuration not stated) | -5.2 | -5.3 | –
COc1ccc(OCC2c3cc(OC)c(OC)cc3CC(=O)N2Cc2cccc(Cl)c2)cc1 (configuration not stated) | -5.1 | -5.1 | –
COc1ccc(OCC2c3cccn3CC(=O)N2Cc2cccc(F)c2)cc1 (configuration not stated) | -5.7 | – | –
COc1ccc(OC[C@H]2c3cccn3CC(=O)N2Cc2cccc(F)c2)cc1 | -5.8 | – | –
COc1ccc(OCC2c3ccc(OC)cc3CC(=O)N2Cc2cccc(Cl)c2)cc1 (configuration not stated) | -5.7 | -5.6 | –
